Consider nine molecules from US20260200947A1, “FUSED CYCLIC COMPOUNDS AND USE THEREOF” (Jacobio Pharmaceuticals Co., Ltd., priority 2022, published 2026).

The subject of assay [1] is AsPC-1 cells (K-Ras G12D).
Assay [2] relates to SW620 cells (K-Ras G12V).
For assay [3], the system named is AGS cells (K-Ras G12D).

Regarding `C#Cc1c(F)ccc2cc(N)cc(-c3nc4c5c(nc(OCC67CC(C)CN6C[C@H](F)C7)nc5c3F)N3CCCOC[C@H]3CO4)c12` (stereo partly drawn) [Compound 32], the IC50 in assay [1] is 0.871 µM; in assay [2] it was 0.0603 µM.
On to `C#Cc1c(F)ccc2cc(N)cc(-c3nc4c5c(nc(OCC67C[C@@H](F)CN6CC6(CC6)C7)nc5c3F)N3CCCOC[C@H]3CO4)c12` (stereo partly drawn) [Compound 33], for which the figures for the IC50 in assay [1], in assay [3] and in assay [2] were 0.0664 µM, 0.0097 µM and 0.0109 µM, respectively.
The matching figures for `C#Cc1c(F)c(F)cc2cc(N)cc(-c3nc4c5c(nc(OC[C@@]67CCCN6CC(=C)C7)nc5c3F)N3CCCOC[C@H]3CO4)c12` [Compound 34]: 0.0364 µM, 0.00205 µM and 0.00349 µM.
The matching figures for `C#Cc1c(F)c(F)cc2cc(N)cc(-c3nc4c5c(nc(OC[C@@]67CCCN6C[C@H](F)C7)nc5c3F)N3CCCOC[C@H]3N4C)c12` [Compound 45]: 0.0229 µM, 0.00558 µM and 0.00938 µM.
The matching figures for `C#Cc1c(F)ccc2cc(N)cc(-c3nc4c5c(nc(OC[C@@]67CCCN6C[C@H](F)C7)nc5c3F)N3CCCC[C@@H](F)C3N4C)c12` (stereo partly drawn) [Compound 49]: 0.0299 µM, 0.00545 µM and 0.00468 µM.
On to `C#Cc1c(F)ccc2cc(O)cc(-c3nc4c5c(nc(OC[C@@]67CCCN6C[C@H](F)C7)nc5c3F)N3CCCOC[C@H]3N4C)c12` [Compound 50], for which the values for the 50% inhibitory concentration (IC50) in assay [1], in assay [3] and in assay [2] were 0.0112 µM, 0.00104 µM and 0.000326 µM, respectively.
The matching figures for `C#Cc1cccc2cc(N)cc(-c3nc4c5c(nc(OC[C@@]67CCCN6C[C@H](F)C7)nc5c3F)N3CCCOC[C@H]3N4C)c12` [Compound 51]: 0.0341 µM, 0.00453 µM and 0.00473 µM.
In the same order, the values of `C#Cc1c(F)ccc2cc(N)cc(-c3nc4c5c(nc(OC[C@@]67CCCN6C[C@H](F)C7)nc5c3F)N3CC(F)(F)CCC3N4C)c12` (stereo partly drawn) [Compound 53] are 0.75 µM, 0.112 µM and 0.0798 µM.
Turning to `C#Cc1c(F)ccc2cc(N)cc(-c3nc4c5c(nc(OC[C@@]67CCCN6C[C@H](F)C7)nc5c3F)N3[C@@H](CC)CCOC[C@H]3CO4)c12` [Compound 65], the IC50 in assay [3] turned out to be 0.00751 µM.
